This note sets out measurements from patent publication US8101734.

Chains of the proteins cited; added tags and fusions are not shown.
UniProt Q92847, whole entry: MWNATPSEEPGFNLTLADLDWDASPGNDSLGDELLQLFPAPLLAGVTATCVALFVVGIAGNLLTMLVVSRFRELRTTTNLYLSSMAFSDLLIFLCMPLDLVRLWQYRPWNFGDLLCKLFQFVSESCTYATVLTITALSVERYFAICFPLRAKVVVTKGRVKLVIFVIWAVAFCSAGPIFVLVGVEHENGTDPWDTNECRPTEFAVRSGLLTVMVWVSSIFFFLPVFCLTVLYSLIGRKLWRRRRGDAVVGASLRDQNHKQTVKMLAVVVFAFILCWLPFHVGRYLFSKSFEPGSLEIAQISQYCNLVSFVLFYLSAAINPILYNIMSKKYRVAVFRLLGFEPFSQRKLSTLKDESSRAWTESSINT

The target of the test is human growth hormone secretagogue receptor (GHS-R1a) (human) (UniProt Q92847). Put plainly: cell-based or functional assay.

Regarding desoctanoyl-ghrelin (peptide), the calcium release (fluo-4 fluorescence) in CHO cells expressing human GHS-R1a came to 300 nM and the effect on octanoyl-ghrelin-induced calcium release in CHO cells expressing human GHS-R1a is 300 nM.
